Experimental data from ChEMBL document CHEMBL3871274 (Eur J Med Chem, 2016).

How the values were obtained:
[1] = biological target: T1, Aurora kinase A (Homo sapiens) (UniProt O14965); assay: Inhibition of GST-tagged Aurora A (123 to 401 residues) (unknown origin) at 50 uM preincubated for 15 mins followed by tetra(LRRWSLG) substrate addition measured for 90 mins by Kinase-Glo luminescence assay
T1 sequence (whole entry): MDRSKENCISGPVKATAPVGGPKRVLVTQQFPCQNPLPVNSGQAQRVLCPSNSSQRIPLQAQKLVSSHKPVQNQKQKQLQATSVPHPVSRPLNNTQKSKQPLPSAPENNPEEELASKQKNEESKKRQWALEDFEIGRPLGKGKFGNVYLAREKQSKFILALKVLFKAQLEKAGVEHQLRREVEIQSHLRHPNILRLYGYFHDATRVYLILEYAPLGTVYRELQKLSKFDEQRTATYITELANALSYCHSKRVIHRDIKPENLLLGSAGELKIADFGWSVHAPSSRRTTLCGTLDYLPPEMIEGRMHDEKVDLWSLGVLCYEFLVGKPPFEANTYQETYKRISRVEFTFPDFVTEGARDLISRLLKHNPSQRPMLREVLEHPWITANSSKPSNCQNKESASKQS

[2] = biological target: T1, Aurora kinase A (Homo sapiens); assay: Inhibition of GST-tagged Aurora A (123 to 401 residues) (unknown origin) at 20 uM preincubated for 15 mins followed by tetra(LRRWSLG) substrate addition measured for 90 mins by Kinase-Glo luminescence assay

O=[N+]([O-])c1cc([N+](=O)[O-])c2cn[nH]c2c1
inhibition [1]: 22% | inhibition [2]: 10%
